According to ChEMBL document CHEMBL5252594:

What was measured:
[1] = Toxicity against pupae stage Aedes aegypti Rockefeller
[2] = Toxicity against adult stage Aedes aegypti Rockefeller; settings: in vivo

Q: For O=C(CC[N+](=O)[O-])OC[C@H]1O[C@@H](OC(=O)CC[N+](=O)[O-])[C@H](OC(=O)CC[N+](=O)[O-])[C@@H](O)[C@@H]1O, which Activity [1] is on record?
A: Its Activity is “Non-Toxic”.

Q: What about the Activity [2] of the same compound?
A: The Activity was “Non-Toxic”.

Q: Which Activity [1] does the source give for O=C(CC[N+](=O)[O-])OC[C@H]1O[C@@H](OC(=O)CC[N+](=O)[O-])[C@H](OC(=O)CC[N+](=O)[O-])[C@@H](OC(=O)CC[N+](=O)[O-])[C@@H]1O here?
A: Its Activity is “Non-Toxic”.

Q: What about the Activity [2] of the same compound?
A: The Activity was “Non-Toxic”.
